Among the data in ChEMBL document CHEMBL1122042, “Chemical synthesis and molecular pharmacology of hydroxylated 1-(1-phenylcyclohexyl-piperidine derivatives” (1982) are nH and K0.5 values, retold here.

The chains behind the UniProt entries cited, without tags or fusion partners. Where a name states a change or a piece, a line headed by the entry shows the natural chain unless it says otherwise.
UniProt Q00961: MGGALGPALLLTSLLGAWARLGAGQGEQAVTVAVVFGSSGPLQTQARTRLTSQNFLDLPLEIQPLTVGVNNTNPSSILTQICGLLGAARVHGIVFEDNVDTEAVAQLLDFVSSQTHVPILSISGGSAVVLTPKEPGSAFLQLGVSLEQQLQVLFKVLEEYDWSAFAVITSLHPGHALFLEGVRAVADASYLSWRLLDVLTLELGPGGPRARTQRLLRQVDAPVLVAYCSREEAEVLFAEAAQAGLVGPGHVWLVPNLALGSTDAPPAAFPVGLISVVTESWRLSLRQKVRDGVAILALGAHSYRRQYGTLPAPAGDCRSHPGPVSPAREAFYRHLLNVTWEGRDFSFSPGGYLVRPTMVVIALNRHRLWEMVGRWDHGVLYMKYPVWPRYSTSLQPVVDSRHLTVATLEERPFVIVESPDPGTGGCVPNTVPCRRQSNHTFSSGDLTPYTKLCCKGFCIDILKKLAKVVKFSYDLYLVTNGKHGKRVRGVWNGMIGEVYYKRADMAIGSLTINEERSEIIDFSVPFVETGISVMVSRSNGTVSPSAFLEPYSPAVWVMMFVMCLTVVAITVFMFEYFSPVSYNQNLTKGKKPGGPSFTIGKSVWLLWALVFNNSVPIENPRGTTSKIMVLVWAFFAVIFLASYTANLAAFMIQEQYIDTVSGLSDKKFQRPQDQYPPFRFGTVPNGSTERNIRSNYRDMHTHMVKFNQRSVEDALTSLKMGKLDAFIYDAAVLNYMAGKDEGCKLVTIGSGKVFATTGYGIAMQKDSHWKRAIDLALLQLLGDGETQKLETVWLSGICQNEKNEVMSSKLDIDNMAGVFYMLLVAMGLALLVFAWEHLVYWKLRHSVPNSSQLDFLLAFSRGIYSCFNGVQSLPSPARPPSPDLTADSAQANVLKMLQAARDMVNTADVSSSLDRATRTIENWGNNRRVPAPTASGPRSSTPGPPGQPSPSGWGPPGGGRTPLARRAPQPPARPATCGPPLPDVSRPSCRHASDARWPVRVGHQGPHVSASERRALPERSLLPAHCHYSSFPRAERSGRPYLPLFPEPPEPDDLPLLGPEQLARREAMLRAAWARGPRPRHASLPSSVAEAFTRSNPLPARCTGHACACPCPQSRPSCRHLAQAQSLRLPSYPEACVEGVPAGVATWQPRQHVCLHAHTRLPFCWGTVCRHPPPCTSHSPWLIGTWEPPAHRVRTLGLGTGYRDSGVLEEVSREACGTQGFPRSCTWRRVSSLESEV
UniProt P42866, whole entry, looked up: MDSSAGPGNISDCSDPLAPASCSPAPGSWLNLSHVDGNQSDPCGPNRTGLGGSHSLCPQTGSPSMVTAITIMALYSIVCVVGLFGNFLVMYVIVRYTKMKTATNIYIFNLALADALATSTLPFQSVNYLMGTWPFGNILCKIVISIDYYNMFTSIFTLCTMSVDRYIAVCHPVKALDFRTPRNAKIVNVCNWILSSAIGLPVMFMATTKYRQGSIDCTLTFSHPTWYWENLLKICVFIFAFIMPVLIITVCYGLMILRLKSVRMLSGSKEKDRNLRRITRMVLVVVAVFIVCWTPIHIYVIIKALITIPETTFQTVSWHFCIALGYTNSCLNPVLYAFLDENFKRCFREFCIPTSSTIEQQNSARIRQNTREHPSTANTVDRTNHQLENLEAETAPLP
UniProt P32300, whole entry, looked up: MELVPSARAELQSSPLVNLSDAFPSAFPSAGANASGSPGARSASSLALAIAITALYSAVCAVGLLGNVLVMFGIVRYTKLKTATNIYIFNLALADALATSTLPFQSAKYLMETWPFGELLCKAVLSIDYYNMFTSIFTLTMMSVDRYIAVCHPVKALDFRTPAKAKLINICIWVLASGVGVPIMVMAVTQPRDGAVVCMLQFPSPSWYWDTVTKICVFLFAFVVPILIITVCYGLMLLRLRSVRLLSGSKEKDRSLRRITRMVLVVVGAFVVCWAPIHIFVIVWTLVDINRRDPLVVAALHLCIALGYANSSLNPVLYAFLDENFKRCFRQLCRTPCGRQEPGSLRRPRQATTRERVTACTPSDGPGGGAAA
UniProt P33534: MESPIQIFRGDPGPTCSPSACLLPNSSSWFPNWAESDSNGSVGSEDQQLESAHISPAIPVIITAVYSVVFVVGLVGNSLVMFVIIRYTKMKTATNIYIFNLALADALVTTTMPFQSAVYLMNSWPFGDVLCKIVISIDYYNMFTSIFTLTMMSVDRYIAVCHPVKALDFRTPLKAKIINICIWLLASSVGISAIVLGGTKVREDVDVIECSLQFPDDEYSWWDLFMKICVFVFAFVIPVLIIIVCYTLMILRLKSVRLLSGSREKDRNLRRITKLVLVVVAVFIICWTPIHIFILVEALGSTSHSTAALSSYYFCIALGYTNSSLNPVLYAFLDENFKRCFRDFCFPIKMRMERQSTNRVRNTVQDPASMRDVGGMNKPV
UniProt Q920H4: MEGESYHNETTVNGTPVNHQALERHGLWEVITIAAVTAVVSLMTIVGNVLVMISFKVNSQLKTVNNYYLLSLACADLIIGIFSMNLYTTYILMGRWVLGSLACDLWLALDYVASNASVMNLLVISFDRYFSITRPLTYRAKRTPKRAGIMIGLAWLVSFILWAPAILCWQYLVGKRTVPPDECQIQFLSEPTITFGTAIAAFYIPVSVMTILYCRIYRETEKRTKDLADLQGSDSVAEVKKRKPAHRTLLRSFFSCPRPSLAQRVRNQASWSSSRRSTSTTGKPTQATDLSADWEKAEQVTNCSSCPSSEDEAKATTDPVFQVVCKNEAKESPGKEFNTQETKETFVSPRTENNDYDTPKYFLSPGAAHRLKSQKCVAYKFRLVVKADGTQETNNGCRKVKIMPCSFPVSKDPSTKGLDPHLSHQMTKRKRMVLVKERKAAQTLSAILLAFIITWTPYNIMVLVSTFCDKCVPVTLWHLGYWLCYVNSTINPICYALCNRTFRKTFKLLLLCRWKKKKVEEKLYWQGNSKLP
UniProt Q9ERZ4: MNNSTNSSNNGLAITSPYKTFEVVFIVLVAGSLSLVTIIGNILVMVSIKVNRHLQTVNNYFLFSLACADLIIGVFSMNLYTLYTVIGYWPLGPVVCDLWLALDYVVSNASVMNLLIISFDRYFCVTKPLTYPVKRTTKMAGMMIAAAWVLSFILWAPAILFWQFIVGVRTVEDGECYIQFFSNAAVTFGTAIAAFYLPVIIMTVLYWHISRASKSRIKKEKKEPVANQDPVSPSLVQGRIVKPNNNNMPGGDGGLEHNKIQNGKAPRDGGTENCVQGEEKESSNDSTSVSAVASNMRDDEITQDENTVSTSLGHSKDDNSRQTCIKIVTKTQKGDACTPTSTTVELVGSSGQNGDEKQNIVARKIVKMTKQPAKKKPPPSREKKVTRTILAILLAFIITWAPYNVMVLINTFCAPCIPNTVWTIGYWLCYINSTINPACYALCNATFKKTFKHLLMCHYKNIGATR
UniProt P12657: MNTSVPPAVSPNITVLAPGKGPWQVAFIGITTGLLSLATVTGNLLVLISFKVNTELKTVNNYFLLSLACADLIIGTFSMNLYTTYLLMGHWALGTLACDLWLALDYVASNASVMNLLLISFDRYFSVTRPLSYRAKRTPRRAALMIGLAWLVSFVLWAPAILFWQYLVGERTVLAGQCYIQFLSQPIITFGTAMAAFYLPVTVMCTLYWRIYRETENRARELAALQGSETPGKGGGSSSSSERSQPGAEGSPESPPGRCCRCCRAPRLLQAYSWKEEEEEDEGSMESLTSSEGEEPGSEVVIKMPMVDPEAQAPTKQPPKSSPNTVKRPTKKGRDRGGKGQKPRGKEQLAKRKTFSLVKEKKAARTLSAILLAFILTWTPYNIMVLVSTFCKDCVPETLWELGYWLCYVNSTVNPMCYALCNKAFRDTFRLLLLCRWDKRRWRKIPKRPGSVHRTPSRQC
UniProt P32211: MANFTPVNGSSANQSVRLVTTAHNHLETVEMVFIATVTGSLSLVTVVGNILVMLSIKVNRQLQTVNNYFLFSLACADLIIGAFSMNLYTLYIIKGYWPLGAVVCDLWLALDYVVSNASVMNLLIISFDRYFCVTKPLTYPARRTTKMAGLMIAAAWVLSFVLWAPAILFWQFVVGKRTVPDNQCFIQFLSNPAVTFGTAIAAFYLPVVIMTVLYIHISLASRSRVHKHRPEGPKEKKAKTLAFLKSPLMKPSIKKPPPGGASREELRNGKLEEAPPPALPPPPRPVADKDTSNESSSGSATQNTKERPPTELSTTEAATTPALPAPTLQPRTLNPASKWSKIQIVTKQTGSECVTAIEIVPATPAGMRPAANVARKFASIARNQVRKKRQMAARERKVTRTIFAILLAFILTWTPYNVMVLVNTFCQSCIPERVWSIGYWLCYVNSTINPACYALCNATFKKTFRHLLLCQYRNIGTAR
UniProt Q9ERZ3: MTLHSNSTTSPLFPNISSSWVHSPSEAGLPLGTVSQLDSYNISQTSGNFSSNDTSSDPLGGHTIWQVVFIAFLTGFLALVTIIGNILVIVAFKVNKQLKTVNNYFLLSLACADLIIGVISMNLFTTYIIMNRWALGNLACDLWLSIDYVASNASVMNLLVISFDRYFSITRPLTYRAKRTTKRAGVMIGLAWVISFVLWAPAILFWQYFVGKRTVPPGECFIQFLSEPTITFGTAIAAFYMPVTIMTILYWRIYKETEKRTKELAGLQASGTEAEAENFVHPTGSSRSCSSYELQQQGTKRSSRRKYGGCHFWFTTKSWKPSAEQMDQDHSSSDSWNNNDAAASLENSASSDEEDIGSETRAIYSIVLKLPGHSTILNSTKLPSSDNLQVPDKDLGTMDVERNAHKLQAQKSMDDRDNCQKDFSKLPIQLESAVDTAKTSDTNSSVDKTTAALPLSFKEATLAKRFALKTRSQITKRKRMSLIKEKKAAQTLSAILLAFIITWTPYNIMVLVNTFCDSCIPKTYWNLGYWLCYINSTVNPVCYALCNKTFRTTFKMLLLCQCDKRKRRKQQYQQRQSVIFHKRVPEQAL

Assay [1] addresses Glutamate receptor ionotropic, NMDA 2C (Rattus norvegicus) (UniProt Q00961). Briefly: Hill coefficient for binding of [3H]phencyclidine to phencyclidine receptor. To be noted: Mus musculus.
Assay [2] concerns the target T1, Opioid receptor (Mus musculus) (UniProt P42866+P32300+P33534). Briefly: Hill coefficient for binding of [3H]morphine to Opioid receptors.
For assay [3], the target named is T1, Opioid receptor (Mus musculus). Briefly: Inhibition of the specific binding of [3H]morphine to Opioid receptors.
For assay [4], the target named is Glutamate receptor ionotropic, NMDA 2C (Rattus norvegicus) (UniProt Q00961). Kind of assay: Inhibition of the specific binding of [3H]phencyclidine to phencyclidine receptor. To be noted: Mus musculus.
For assay [5], the target named is T2, Muscarinic acetylcholine receptor (Mus musculus) (UniProt Q920H4+Q9ERZ4+P12657+P32211+Q9ERZ3). Kind of assay: Inhibition of the specific binding of [3H]QNB to Muscarinic acetylcholine receptor.
Assay [6] deals with T2, Muscarinic acetylcholine receptor (Mus musculus). Briefly: Hill coefficient for binding of [3H]QNB to Muscarinic acetylcholine receptor.

SMILES strings stand for the structures. Values joined by “and” are separate entries in the source; they are usually repeats but may differ in a detail not shown here. Identical values can stand only once.

Regarding `Oc1ccccc1C1(N2CCCCC2)CCCCC1`, the nH in assay [1] came to 1; in assay [2] it was 0.8. For the same compound, the K0.5 in assay [3] is 17 µM; in assay [4], 0.75 µM; in assay [5] it was above 100 µM.

Regarding `OC1CCN(C2(c3ccccc3)CCCCC2)CC1`, the nH in assay [1] was 1.2; in assay [2] it was 0.9. Moreover, the K0.5 was 25 µM in assay [3], 2.2 µM in assay [4] and above 100 µM in assay [5].

With `Oc1ccc(C2(N3CCCCC3)CCCCC2)cc1`, the nH in assay [1] amounted to 1; in assay [2], 0.9. Moreover, the values for the K0.5 in assay [3], in assay [4] and in assay [5] were 35.4 µM, 20 µM and above 100 µM, respectively.

With `c1ccc(C2(N3CCCCC3)CCCCC2)cc1` [PHENCYCLIDINE], the nH in assay [6] came to 0.8; in assay [1] it was 1; in assay [2], 0.9. Besides, the K0.5 was found to be 26 µM in assay [3], 0.25 µM in assay [4] and 30 µM in assay [5].

Take `Oc1cccc(C2(N3CCCCC3)CCCCC2)c1`: the nH came to 1 in assay [6], 0.9 in assay [1] and 0.9 in assay [2]. The K0.5 in assay [3] stood at 0.06 µM; in assay [4], 0.03 µM; in assay [5], 70 µM.

The compound `O[C@H]1CC[C@@](c2ccccc2)(N2CCCCC2)CC1` showed a nH in assay [1] of 1. In assay [4], this compound displayed a K0.5 of 17 µM.

Consider `OC1CCCC(c2ccccc2)(N2CCCCC2)C1` (stereo unspecified), for which the nH is 0.9 and 1 in assay [1]; 1 and 0.8 in assay [2]. In addition, the K0.5 in assay [3] was 27.7 µM and 11.5 µM; in assay [4] it was 0.9 µM and 2.2 µM; in assay [5], above 100 µM.

Consider `O[C@H]1CC[C@](c2ccccc2)(N2CCCCC2)CC1`, for which the nH in assay [1] amounted to 1.1. The compound also came in with a K0.5 in assay [4] of 8.3 µM.
